# Yeast mating assay B: variants of the scFv Ab-14

Values reported by Li et al. 2023, doi:10.1038/s41467-023-39022-2 (FLAb copy).

Binding partner: SARS-CoV-2 spike HR2 peptide, sequence PDVDLGDISGINAS.

Parent: Ab-14, a human scFv built as VH, three GGGGS repeats, VL. Only the CDRs of the heavy chain vary.
VH: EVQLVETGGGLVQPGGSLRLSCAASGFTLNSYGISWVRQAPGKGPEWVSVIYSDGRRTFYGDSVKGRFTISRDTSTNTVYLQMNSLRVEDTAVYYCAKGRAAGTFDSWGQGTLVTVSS
VL: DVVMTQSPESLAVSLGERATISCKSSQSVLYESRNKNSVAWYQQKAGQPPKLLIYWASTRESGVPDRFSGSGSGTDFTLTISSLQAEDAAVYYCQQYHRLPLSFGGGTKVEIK

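These sequences belong to a second round, designed from the earlier measurements on random variants of the parent. Several design methods are mixed in this list. Affinity was read by AlphaSeq, a pooled yeast mating assay with surface-displayed partners. After mating in shaken culture at 30 °C for 16 h, diploids were selected and their barcode pairs sequenced. Read counts were normalised to the haploid input and turned into Kd by a linear fit to BCL2-family pairs of known affinity, for each replicate. The assay was run in six technical replicates.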

Variants are written as CDR1, CDR2 and CDR3 of the heavy chain (limits as in the source). Parent: GFTLNSYGIS, VIYSDGRRTFYGDSVK, GRAAGTFDS.
Affinities are written as log10 Kd with Kd in nM; a lower number is a better binder.
Averages over replicates are reported, and they cover detected replicates only.
A pair that was not seen in any replicate is written "not detected"; this usually means weak binding, but a binder can also be missed.

CDR-H1	CDR-H2	CDR-H3	mean, log10 nM	replicates with signal	empty controls
GFTRNSYGIS	VIYSDGRRTFYGDSVK	WRAAGTFDS	1.15	1 of 6	0 of 18
GFTVADYGIS	VIYSDGRKTFYIDSVK	GRVIGTFDS	not detected	0 of 6	0 of 18
HFNLNEYGIS	VIYSDGRRTFYGDSVK	GRAALTFCS	not detected	0 of 6	0 of 18
GFTLNSYGIS	VIYSDGRRTFYGDSVK	GRDDGTFES	not detected	0 of 6	1 of 18
KFQLNSYGIS	VIYSDGRRTFYQDSVK	GRTAGTFDS	0.83	1 of 6	0 of 18
GFELNSYGIS	VIYADGRRTFYSDSVK	GGAAGTFDS	-0.15	6 of 6	0 of 18
GFNLNSYGNS	VIYSDGRRTFPDDSSK	GQYAGTFDS	not detected	0 of 6	0 of 18
GFTLNSYGIS	VIYSDGMRTFYSDSVK	GITAGTFDS	0.22	6 of 6	0 of 18
GFDLNEYGIS	VIYADGVRTFYADSVK	GNNAGTFDI	-0.50	6 of 6	0 of 18
GYNLQEYGVS	VIYADGRRSVYINSVK	GGSAGTFVF	not detected	0 of 6	0 of 18
GFNLDEYGIS	VIYADGQRKVYTQDVK	GLYTFKKGI	not detected	0 of 6	1 of 18
GFTLNSYGIS	VIYSDGRRTFYGDSVK	HRAAWTFCS	0.29	2 of 6	0 of 18
GFELNDYGIS	VIYSDGRRTFYGDSVK	GRTAGTFDS	0.21	6 of 6	0 of 18
GFDLNDYGIS	VIYADGRRTFYADSVK	GEIAGTFDI	-0.36	6 of 6	1 of 18
GFDLDEYGIS	VIYADGQRTAYADKVK	GNVAGTFDL	1.08	6 of 6	0 of 18
GFDLEEYGIS	VIYADGMRTQYINAVK	GIAGDIMDV	not detected	0 of 6	0 of 18
GFTLNSYGIS	VIYSDGRRTFYGDSVK	GRAAQTFDS	not detected	0 of 6	1 of 18
GFTLNSYGIS	VIYSDGRRTFMGDSFK	GRAAGTFDS	not detected	0 of 6	0 of 18
GFDLEDYGIS	VIYADGRRQQYAQKFK	GTIGGTFVD	1.06	5 of 6	0 of 18
GKGLDEYGIS	VIYADGMRTEYVQSVK	GDTGSIKFV	not detected	0 of 6	0 of 18
GFNLNSYGIS	VIYSDGRRTFYGDSVK	GQAAGTFDD	1.76	3 of 6	0 of 18
GFDLNEYGIS	VIYADGVRTAYDDSVK	GQVAGTFDS	-0.37	6 of 6	0 of 18
GFDLNEYGIS	VIYADGRRTFYIDSVK	GTNAGTFDS	-0.35	6 of 6	0 of 18
GFWLNDYGIS	VIYSDGRRTYYGDSVK	GRAAGTFDS	1.70	1 of 6	0 of 18
GFELNSYGIS	VIYSDGRRTFYADAVK	GKTAGTFDS	0.13	6 of 6	0 of 18
GFSLNSYGIS	VIYRDGKRTFYGDSVK	GYAAGAFDS	not detected	0 of 6	0 of 18
GKTLNDYAIS	VIYSDGRRTQYIDSVK	GRAAGTFDS	1.83	3 of 6	0 of 18

Continued, with the values leading:

mean, log10 nM	replicates with signal	empty controls	CDR-H1	CDR-H2	CDR-H3
-0.58	6 of 6	0 of 18	GFNLNEYGIS	VIYADGKRTFYADSVK	GGAAGTFDV
0.25	6 of 6	0 of 18	GFDLNEYGIS	VIYADGRRTAYTDSVK	GEFAGTFDQ
2.46	2 of 6	2 of 18	GFNLDEYGVS	VIYADGNRKQYTEDVK	GTNGGAVDL
1.01	6 of 6	0 of 18	GFNLNSYGIS	VIYSDGRRTFYGDKVK	GRVAGTFDS
-0.26	6 of 6	0 of 18	EFDLNSYGIS	VIYSDGRRTFYQDSVK	GRTAGTFDS
-0.46	6 of 6	0 of 18	GFDLNEYGIS	VIYADGVRTAYTDSVK	GTNAGTFDM
0.36	4 of 6	0 of 18	GFSLNDYGIS	VIYSDGRRTFYSDSVK	GRAAGTFDS
1.26	1 of 6	0 of 18	GFTLNEYGIS	VIYSDGRRTMYGDSVK	GRIAGTFDS
not detected	0 of 6	0 of 18	GFDLNSYGIS	VIYSDGRRTAYGDSVK	NRAAGTFDS
not detected	0 of 6	0 of 18	GFTLNSYGIS	VIYSDGRRTFYGDSVK	GNAYGTFDS
not detected	0 of 6	1 of 18	GFTLNEYGIS	VIYSDGRRTFYGDDVK	GRAHGVFIS
not detected	0 of 6	0 of 18	GFTLNSYGIS	VIYSDGYRTFYGDSVK	GRARGTFDS
0.14	6 of 6	1 of 18	GFNLNEYGIS	VIYADGRRTFYSDSVK	GEMGGTFDV
-0.09	6 of 6	0 of 18	GFDLNEYGIS	VIYADGVRTAYADTVK	GENAGTFDV
-0.35	6 of 6	0 of 18	GFELNNYGIS	VIYADGRRTFYGDSVK	GRAAGTFDS
-0.45	6 of 6	0 of 18	GFDLNEYGIS	VIYADGIRTFYADSVK	GNVAGTFDV
not detected	0 of 6	1 of 18	GFTLNEYGIS	VIYSDGRRTFYGDSVK	GRSAVTFDQ
0.35	6 of 6	0 of 18	GFSLNSYGIS	VIYSDGRRTFYGDSVK	GQTAGTFDK
1.02	23 of 24	1 of 72	GFTLADYGIS	VIYSDGRRTFYGDSVK	GRAAGTFDS
not detected	0 of 6	1 of 18	SFELNSYGIS	VIYADGRRTFYGDSVK	GRTAGTFDS
1.36	1 of 6	0 of 18	GFDLEEMGIH	VIYADGIRTAVSNDVK	GNVAGTIDV
1.12	3 of 6	0 of 18	GFQLNSYGIS	VIYSDGRRTFYSDQVK	GRQAGTFDS
0.93	6 of 6	1 of 18	GFTLNEYGIS	VIYSDGRRTFYGDSVK	GQAAGTFDE
1.64	2 of 6	1 of 18	GADLQEYGIS	VIYADGNRYAYANSVK	GTQGGSLIV
not detected	0 of 6	0 of 18	GFEIDEYGIS	VIYADGIRSSYNDNVK	GQLGGAFDL
1.04	6 of 6	0 of 18	GFSLNSYGIS	VIYSDGRRTMYGDSVK	GRQAGTFDS
-0.47	6 of 6	0 of 18	GFDLNEYGIS	VIYADGMRTAYADDVK	GETAGTFDV

Empty control strains, which show no peptide, gave a signal in 1% of pairings with all heavy chain designs; the median was 2.08 and 95% of these signals were weaker than 0.84. No background was subtracted. The control count says in how many pairings with the empty strains this scFv gave a signal.
The parent sequence was in this pool as ten entries: three were never detected, three once, and four in most replicates, with averages from 0.34 to 2.37.
Where one sequence has several entries in the source, the replicates are pooled.
In the paper, a design with two or fewer of six values counts as a poor binder.
Values of this round are not directly comparable with the first-round values of the same sequences.